Compound activity: PubChem, Broad Institute
A selection: hits, their analogues and other compounds. The true share with any hit is near 1.2%.
UUG fidelity – alters start codon recognition fidelity in yeast | S. cerevisiae UUG-firefly luciferase reporter, luminescence/redox ratio | activity score, % at 18.7 µM | hit rate 0.13% among 350,000 | AID 602363;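 active means replicate mean at a twofold rise or more, about +100% in these data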;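 further: firefly luciferase made from a UUG start codon reports start codon fidelity; reporter light over untreated wells divided by growth signal over untreated wells; some hits fall short of that in this replicate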
Cneo AK release – causes C. neoformans cell lysis. adenylate kinase release luminescence, 4 h; normalised: neutral wells 0, clomiphene wells 100. lysis activity, % at 15 µM. 0.2% of 360,000 active;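 active = mean lysis activity across replicates of at least 80%, whatever share of replicates individually reach that level; inactive = mean lysis activity below 80%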
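Test system: log-phase Cryptococcus neoformans yeast cells. Input: 5 × 10^6 yeast cells/mL. Medium: fresh YPD growth medium. Doses: single dose. Incubation: static 4 h at 37 °C with compound, 1 h detection. Measured by: luminescent adenylate kinase detection reagent. Read-out: signal increase indicating cell lysis. Benchmarks: Clomiphene.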
N-glyco inh – blocks N-linked glycosylation in D54 reporter cells; D54 ERlucT glycosylation luciferase reporter, 24 h; percent of 100 nM tunicamycin response; reporter increase, % at 12.5 µM; 0.23% of 360,000 active;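 active = mean luciferase reporter signal, scaled so untreated is 0 and the glycosylation-blocking control 100, at or above a set limit in every replicate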;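 also: luciferase carries N-glycosylation sites so blocking glycosylation raises the light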
C2C12 statin – protects C2C12 myotubes from simvastatin toxicity; ATP luminescence, 48 h; scaled: DMSO 0, geranylgeraniol control 100; rescue of ATP level, % at 7.49 µM; 0.78% of 330,000 active; AID 602340;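 active = mean ATP rescue above about 67%, or every replicate alone reaching that limit, limit read from the data, passing the limit was not always enough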;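 also: myotubes were challenged with 10 µM simvastatin during compound exposure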
miR-122 sensor – inhibitors of miR-122 in Huh7 cells | AID 602342 | Huh7 miR-122 Renilla luciferase sensor, 48 h; neutral wells = 0, positive control = 100 | activation (reporter increase), % at 12.5 µM | 0.3% of 340,000 active;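 active = mean replicate activation score at least 90 and every replicate individually at or above 90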;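 also: higher luciferase means less miR-122 activity so hits act as miR-122 inhibitors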
Numbers stand for hits; - = inactive; . = not tested or not shown.

SMILES	UUG fidelity	Cneo AK release	N-glyco inh	C2C12 statin	miR-122 sensor
Cc1cc(F)ccc1C(O)c1ncc(-c2ccccc2F)[nH]1 (stereo not drawn)	-	-	-	-	112
Cc1ccccc1-c1cnc(C(O)c2ccc(F)cc2C)[nH]1 (stereo not drawn)	.	-	-	-	-
Cc1cccc(C)c1C(O)c1ncc(-c2ccccc2F)[nH]1 (stereo not drawn)	-	-	-	-	-
Cc1ccc(S(=O)(=O)N[C@@H]2CC[C@H](CCn3cc(C(C)C)nn3)O[C@@H]2CO)cc1	-	-	.	-	.
Cc1ccc(-c2nc(=O)[nH]c3ccccc23)cc1	-	-	-	-	-
O=c1nc(-c2ccccc2)c2ccccc2[nH]1	-	116	-	-	-
C(=N\c1nccs1)/c1cccnc1	-	-	-	112	-
CCOC(=O)N1CCN(C(=O)CNCc2cccs2)CC1	-	-	-	93	-
C/C=C/c1ccc([C@@H]2[C@@H](CO)N3CCCCN(S(=O)(=O)c4cccc(C)c4)C[C@H]23)cc1	-	-	.	-	-
CO[C@H]1CN(C)C(=O)c2ccc(NC(=O)C3CC3)cc2OC[C@H](C)N(Cc2cccnc2)C[C@H]1C	-	-	.	-	.
COc1ccccc1CNC(=O)c1c(-c2ccccc2Cl)noc1C	-	-	-	-	-
Cc1onc(-c2ccccc2Cl)c1C(=O)NCc1nc(-c2ccccc2)no1	-	-	-	159	-
O=C(C[C@@H]1C[C@H]2c3cc(NC(=O)C4CCOCC4)ccc3O[C@H]2[C@@H](CO)O1)NCC1CC1	-	-	.	-	-
CC1(C)Cc2c(C#N)c(N)n(-c3ccccc3)c(=O)c2CO1	-	-	-	82	-
CCCC12CN(C(=O)c3ccco3)CC(CCC)(CN(C(=O)c3ccco3)C1)C2=O	-	-	-	77	-
C[C@@H]1CN([C@H](C)CO)C(=O)c2cc(NS(=O)(=O)c3cn(C)cn3)ccc2O[C@@H]1CN(C)Cc1ccc(-c2ccccc2)cc1	-	-	.	-	-
Cc1nc2ncnn2c(N2CCN(C(c3ccccc3)c3ccccc3)CC2)c1C	-	-	-	79	-
C[C@H](CO)N1C[C@H](C)[C@@H](CN(C)C(=O)c2ccncc2)Oc2ncc(-c3ccc(C(=O)N(C)C)cc3)cc2C1=O	.	-	.	-	-
CCOc1cc(S(=O)(=O)NCc2ccc(OC)cc2)c(OCC)cc1-n1cnnn1	-	-	30	-	-
C[C@H]1CCCCO[C@@H](CN(C)C(=O)c2ccccc2)[C@@H](C)CN([C@@H](C)CO)C(=O)c2cc(NC(=O)c3ccncc3)ccc2O1	-	86	.	-	-
C[C@@H]1CN([C@H](C)CO)C(=O)c2cc(NC(=O)CCC(F)(F)F)ccc2O[C@@H](C)CCCCO[C@@H]1CN(C)C(=O)c1ccncc1	-	89	.	.	-
C[C@@H]1CCCCO[C@H](CN(C)C(=O)c2ccccc2)[C@@H](C)CN([C@@H](C)CO)C(=O)c2cc(NC(=O)c3ccccc3)ccc2O1	.	96	.	.	-
O=C(C[C@@H]1CC[C@H](NC(=O)c2ccncc2)[C@H](CO)O1)NCC1CCCCC1	-	-	.	-	-
Cc1ccc2nc(SCC(=O)NCc3ccc(F)cc3)nc(=O)n2c1	-	-	-	.	.
Nc1c(N(CCC2=CCCCC2)C(=O)Cc2ccc(F)cc2)c(=O)[nH]c(=O)n1Cc1ccccc1	.	.	-	.	.
SMILES	UUG fidelity	Cneo AK release	N-glyco inh	C2C12 statin	miR-122 sensor
Nc1c(N(CCC2=CCCCC2)C(=O)COc2ccc(F)cc2Cl)c(=O)[nH]c(=O)n1Cc1ccccc1	-	-	56	-	-
O=S(=O)(c1ccccc1)c1cc(O)ccc1O	-	-	-	-	221
O=S(=O)(c1ccc(Cl)cc1)c1cc(O)ccc1O	-	-	-	-	.
Cc1cc(NC(=O)CCC(=O)N(CCC(C)C)C(C(=O)NC2CCCC2)c2cccnc2)no1 (stereo not drawn)	-	-	-	105	-
CCOC(=O)CN(C(=O)CCC(=O)Nc1cc(C)on1)C(C(=O)NC1CCCC1)c1cccnc1 (stereo not drawn)	-	-	.	.	-
CCCCCCNS(=O)(=O)c1ccc(OC)c(OC)c1	-	-	-	-	203
CCCCNS(=O)(=O)c1ccc(OC)c(Cl)c1Cl	-	-	-	-	222
CO[C@H]1CN(C)C(=O)c2cc(NS(C)(=O)=O)ccc2OC[C@@H](C)N(CCC(F)(F)F)C[C@H]1C	-	-	.	-	-
COc1ccc(OCC(O)CN2C(=O)NC(C)(C)C2=O)cc1 (stereo not drawn)	-	-	-	121	-
CC1(C)NC(=O)N(CC(O)Cn2nnc3ccccc32)C1=O (stereo not drawn)	-	-	-	131	-
CC1(C)NC(=O)N(CC(O)COc2cccc(F)c2)C1=O (stereo not drawn)	-	-	-	-	-
CN(C)C(=O)C[C@H]1CC[C@H]2[C@@H](COC[C@H](O)CN2Cc2nccs2)O1	-	-	.	-	-
CCOC(=O)n1c(=O)n(Cc2c(Cl)cccc2Cl)c2ccccc21	-	-	-	175	-
Cc1c(C(N)=O)sc2ncn(CC(=O)N(C)C3CCCCC3)c(=O)c12	-	-	-	-	-
O=C(CN1CCN(S(=O)(=O)c2ccc(Br)cc2)CC1)Nc1ccc2c(c1)OCCO2	-	-	-	144	-
COc1cccc(NC(=O)Nc2ccc3c(c2)C(=O)N(C)[C@H]2CC[C@@H](CC(=O)NCCc4ccccc4)O[C@@H]2CO3)c1	.	-	.	-	.
COCCNC(=O)C[C@@H]1C[C@@H]2c3cc(NC(=O)Nc4ccccc4)ccc3O[C@@H]2[C@H](CO)O1	-	-	.	-	-
O=C(COc1ccc(/C=N/NC(=O)c2cc3ccccc3o2)cc1Br)Nc1ccccc1	-	-	62	-	-
Cc1noc(C)c1-c1ccc(C(=O)NCc2cccs2)c2occc12	-	-	-	-	-
CN1c2ccc(C#Cc3cccnc3)cc2[C@@H]2[C@@H](CCN2C(=O)Cc2cccnc2)[C@H]1CO	-	-	.	-	-
CC(C)Sc1nc(SCC(=O)NCc2ccco2)c2c3c(sc2n1)COC(C)(C)C3	-	-	-	129	-
Cc1noc(C)c1S(=O)(=O)N1CCC(C(=O)N2CCN(c3ccccc3Cl)CC2)CC1	-	-	-	137	-
CCOC(=O)c1sc2nc(C3CC3)cc(-c3ccc(OC)cc3)c2c1N	-	-	-	98	-
CCOC(=O)c1sc2nc(C3CC3)cc(-c3ccc(F)cc3)c2c1N	-	-	-	-	-
Cc1nc(CNC(=O)CC2C(=O)NCCN2Cc2ccc(F)cc2)cs1 (stereo not drawn)	-	-	-	.	-
Cc1cc(N2CCC(C(=O)NC3CC3)CC2)nc(-c2ccccc2)n1	-	-	-	.	-
Cc1cc(N2CCN(c3cccc(C)c3C)CC2)nc(-c2ccccc2)n1	-	-	-	117	-
CC(C)NC(=O)N(C)C[C@@H]1Oc2cc(C#CCN(C)C)ccc2S(=O)(=O)N([C@H](C)CO)C[C@H]1C	-	-	.	-	-
